Source: PubChem BioAssay AID488841 (Sanford-Burnham Center for Chemical Genomics, 2010)
The list shows a part of the results, in another mix than the full data. Active and inactive are the calls of the source.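 How the source made its calls: active means mean inhibition above 50% across duplicate retests at 10 µM; inactive means the rest.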

test: inhibition of NALP1/ASC/caspase-1 reporter signal in yeast, confirmation, NALP1 inhibitor project, S. cerevisiae, luminescence, single concentration (AID 488841);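 further: plate controls were DMSO in galactose medium for no effect and cells in plain SD medium for full effect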; conditions: S. cerevisiae NALP1/ASC/Caspase-1 reporter, beta-gal luminescence; at 10 µM; stronger effect = higher value

Row | SMILES | inhibition
1 | CCN1CCC(Nc2cccc(F)c2)CC1 | inactive: 24.1%
